Reference: PubChem BioAssay AID720704 (The Scripps Research Institute Molecular Screening Center, 2013)
The list shows a part of the results, in another mix than the full data. Calls of active or inactive are those of the source. No stated cut-off is given here; in the data, active means inhibition above about 11%; inactive means the rest.

By UniProt entry, the sequences of proteins in these tests, tags left out.
UniProt Q01970, whole entry: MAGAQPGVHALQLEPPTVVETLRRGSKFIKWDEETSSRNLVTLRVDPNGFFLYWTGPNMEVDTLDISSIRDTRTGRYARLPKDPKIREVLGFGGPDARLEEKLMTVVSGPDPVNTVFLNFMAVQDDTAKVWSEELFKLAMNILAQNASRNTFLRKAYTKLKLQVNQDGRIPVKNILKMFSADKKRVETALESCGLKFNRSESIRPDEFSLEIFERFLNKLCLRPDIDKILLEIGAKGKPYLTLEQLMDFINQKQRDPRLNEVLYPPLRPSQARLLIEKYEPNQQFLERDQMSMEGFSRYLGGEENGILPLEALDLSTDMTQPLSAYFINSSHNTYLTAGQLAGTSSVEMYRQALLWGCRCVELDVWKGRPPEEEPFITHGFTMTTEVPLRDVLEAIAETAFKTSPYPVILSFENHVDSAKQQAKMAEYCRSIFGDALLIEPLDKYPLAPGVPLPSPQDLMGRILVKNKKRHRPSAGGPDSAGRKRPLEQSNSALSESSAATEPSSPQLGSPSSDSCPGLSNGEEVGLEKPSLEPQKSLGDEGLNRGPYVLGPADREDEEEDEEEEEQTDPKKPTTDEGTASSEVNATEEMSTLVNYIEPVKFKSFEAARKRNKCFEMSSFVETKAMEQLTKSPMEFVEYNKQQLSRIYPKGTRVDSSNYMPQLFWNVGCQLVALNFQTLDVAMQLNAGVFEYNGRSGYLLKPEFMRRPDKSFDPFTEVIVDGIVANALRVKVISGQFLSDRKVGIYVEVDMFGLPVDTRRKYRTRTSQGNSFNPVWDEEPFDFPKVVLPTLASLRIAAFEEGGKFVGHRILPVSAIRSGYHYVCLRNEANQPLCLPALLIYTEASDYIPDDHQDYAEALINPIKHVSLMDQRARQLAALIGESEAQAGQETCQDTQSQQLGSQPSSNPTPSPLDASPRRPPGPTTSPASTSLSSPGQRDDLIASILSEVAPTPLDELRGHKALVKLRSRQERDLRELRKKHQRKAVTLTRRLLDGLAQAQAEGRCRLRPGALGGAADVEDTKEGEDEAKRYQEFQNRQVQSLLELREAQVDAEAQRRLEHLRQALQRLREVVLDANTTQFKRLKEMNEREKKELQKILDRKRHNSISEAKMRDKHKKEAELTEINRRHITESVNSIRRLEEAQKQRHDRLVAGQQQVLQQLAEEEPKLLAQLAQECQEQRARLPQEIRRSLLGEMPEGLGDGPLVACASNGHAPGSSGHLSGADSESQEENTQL

These compounds were tested against 1-phosphatidylinositol 4,5-bisphosphate phosphodiesterase beta-3 (Homo sapiens) (UniProt Q01970) (assay: human PLC-beta3 inhibitors, primary screen, biochemical, fluorescence (AID 720704;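 further: 0% = median of compound wells on plate and 100% = full blocker control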)). Settings: Purified PLC-beta3, fluorogenic substrate, at 12.2 µM, active compounds read high.

| Structure (SMILES) | inhibition |
| --- | --- |
| CCCOc1ccc(C(=O)NCC2(N(C)C)CCCCC2)cc1 | inactive: -5.65% |
| O=c1[nH]c2ccccc2n1C1CCN(C(c2cc3ccccc3o2)c2nnnn2C2CCCC2)CC1 (centres undefined) | inactive: -4.41% |
| NN(c1ccccc1)C1CCN(CCc2ccccc2)CC1 | inactive: 0.81% |
| O=C(O)C1(Nc2ccccc2)CCN(Cc2ccccc2)CC1 | inactive: -8.43% |
| CC(C)(C)OC(=O)N1CCC(Nc2ccccc2)CC1 | inactive: -6.7% |
| CN1CCC(Nc2ccc(F)c(Cl)c2)CC1 | inactive: -6.64% |
| CCOc1ncccc1C(=O)NCC1(N2CCOCC2)CCCCC1 | inactive: -2% |
| CN1CCC(Nc2ccc(Cl)cc2)CC1 | inactive: -6.35% |
| CCC(CO)(C(=O)OC1CN2CCC1CC2)c1ccccc1 (centres undefined) | inactive: 5.83% |
| COc1cccc(C(=O)N(c2cc(C)cc(C)c2)C2CCN(C(=O)OC(C)(C)C)CC2)c1 | inactive: -3.74% |
| COc1cc(OC)cc(C(=O)NCC2(N3CCOCC3)CCCCC2)c1 | inactive: 0.23% |
| COc1cccc(C(c2nnnn2C2CCCC2)N2CCC(n3c(=O)[nH]c4ccccc43)CC2)c1OC (centres undefined) | inactive: 2.45% |
| Cc1ccc(NC2(C#N)CCN(Cc3ccccc3)CC2)cc1 | inactive: 3.74% |
| Fc1ccccc1NC1CCN(Cc2ccccc2)CC1 | inactive: -8.51% |
| Cc1ccc(C(=O)NCC2(N3CCCCC3)CCCCC2)o1 | inactive: -6.5% |
| O=c1[nH]c2ccccc2n1C1CCN(C(c2ccnc3ccccc23)c2nnnn2C2CCCCC2)CC1 (centres undefined) | inactive: -1.12% |
| COc1cc(OC)cc(C(=O)NCC2(N3CCCCC3)CCCCC2)c1 | inactive: -3.92% |
| CCC(c1nnnn1C1CCCCC1)N1CCC(n2c(=O)[nH]c3ccccc32)CC1 (centres undefined) | inactive: 3.78% |
| CC(=O)N(c1ccccc1)C1CCNCC1 | inactive: -1.83% |
| COc1cccc(C(c2nnnn2C2CCCCC2)N2CCC(n3c(=O)[nH]c4ccccc43)CC2)c1OC (centres undefined) | inactive: 1.47% |
| Cn1c(=O)[nH]cc(N(CCCl)CCCl)c1=O | inactive: 3.24% |
| CN(C)c1ccc(C(=O)NCC2(N3CCCCC3)CCCCC2)cc1 | inactive: 0.63% |
| O=C(NCC1(N2CCCCC2)CCCCC1)c1ccco1 | inactive: -1.14% |
| CC(C)(C)n1nnnc1C(c1ccnc2ccccc12)N1CCC(n2c(=O)[nH]c3ccccc32)CC1 (centres undefined) | inactive: 4.67% |
| CCN1CCC(Nc2cccc(F)c2)CC1 | inactive: 5.64% |

| Structure (SMILES) | inhibition |
| --- | --- |
| COc1ccc(C(c2nnnn2C2CCCCC2)N2CCC(n3c(=O)[nH]c4ccccc43)CC2)cc1 (centres undefined) | inactive: 1.45% |
| Cc1ccccc1NC1(C#N)CCN(Cc2ccccc2)CC1 | inactive: 1.24% |
| CC(C)(C)OC(=O)N1CCC(N(C(=O)c2ccccc2)c2ccc(Cl)cc2)CC1 | inactive: -3.3% |
| N#Cc1ccc(C(=O)NCC2(N3CCCCC3)CCCCC2)cc1 | inactive: -5.88% |
| CC(C)(C)n1nnnc1C(c1cccc2ccccc12)N1CCC(n2c(=O)[nH]c3ccccc32)CC1 (centres undefined) | inactive: -3.54% |
| Cc1cc(N(CCCl)CCCl)ccc1C=O | inactive: -1.83% |
| O=c1[nH]c2ccccc2n1C1CCN(C(c2ccccc2)c2nnnn2C2CCCC2)CC1 (centres undefined) | inactive: 0.78% |
| CCCN1CCC(Nc2cc(OC)cc(OC)c2)CC1 | inactive: -8.8% |
| c1ccc(CN2CCC(Nc3ccccc3)CC2)cc1 | inactive: -0.67% |
| C/C(N)=N\P(=O)(Oc1ccccc1)Oc1ccccc1 | inactive: 5.8% |
| CN(C)C1(CNC(=O)c2cccc(C#N)c2)CCCCC1 | inactive: -3.07% |
| O=c1[nH]c2ccccc2n1C1CCN(C(c2ccnc3ccccc23)c2nnnn2C2CCCC2)CC1 (centres undefined) | inactive: 0.07% |
| COc1ccc(C(=O)NCC2(N3CCOCC3)CCCCC2)cc1OC | inactive: -0.55% |
| NC(=O)C1(Nc2ccccc2)CCN(Cc2ccccc2)CC1 | inactive: 4.44% |
| O=c1[nH]c2ccccc2n1C1CCN(C(c2cccs2)c2nnnn2C2CCCCC2)CC1 (centres undefined) | inactive: -0.08% |
| O=C(NCC1(N2CCOCC2)CCCCC1)c1cc(Br)ccc1Cl | inactive: -4.57% |
| COc1cc(C(=O)NCC2(N3CCOCC3)CCCCC2)cc(OC)c1C | inactive: -6.64% |
| CCCCn1nnnc1C(c1ccccc1)N1CCC(n2c(=O)[nH]c3ccccc32)CC1 (centres undefined) | inactive: 3.27% |
| CCCCn1nnnc1C(c1cccc(OC)c1OC)N1CCC(n2c(=O)[nH]c3ccccc32)CC1 (centres undefined) | inactive: 5.77% |
| O=c1[nH]c2ccccc2n1C1CCN(C(c2cccs2)c2nnnn2C2CCCC2)CC1 (centres undefined) | inactive: 7.13% |
| O=C(OC1CN2CCC1CC2)C1c2ccccc2C=Cc2ccccc21 (centres undefined) | inactive: -1.94% |
| N/C(=N\O)c1c(N)no[n+]1[O-] | inactive: 0.94% |
| COc1cccc(C(c2nnnn2C(C)(C)C)N2CCC(n3c(=O)[nH]c4ccccc43)CC2)c1OC (centres undefined) | inactive: 0.44% |
| CCOC(=O)N1CCC(Nc2ccc(C)cc2)CC1 | inactive: -6.59% |
